The numbers were not newly measured in patent US20190111064A1 (Interstice Therapeutics, LLC, priority 2017, published 2019), which cites them from elsewhere.

The conditions of this series: FNB guideline; children aged 9 and older and adults.

Regarding vitamin D, the “upper limit (UL)” value is 4,000 IU.
